Results taken from paper PMC5030704 (Scientific Reports, 2016).

Protein sequences, listed by entry. Tags and fused reporters are not part of them. Residues count along the entry.
UniProt Q9UKE5, 25-289 limits assumed: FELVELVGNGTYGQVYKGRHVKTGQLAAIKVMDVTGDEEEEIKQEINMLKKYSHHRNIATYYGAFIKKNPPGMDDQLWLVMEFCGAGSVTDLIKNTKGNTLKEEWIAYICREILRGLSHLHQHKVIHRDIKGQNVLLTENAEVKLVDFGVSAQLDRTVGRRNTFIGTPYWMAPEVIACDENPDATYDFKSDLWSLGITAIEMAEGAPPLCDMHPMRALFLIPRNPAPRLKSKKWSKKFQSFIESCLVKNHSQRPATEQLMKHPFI

Molecular target: T1, TNIK (Homo sapiens, UniProt Q9UKE5)
T1 construct: kinase domain, DNA-tagged, KINOMEscan commercial panel
Test: KINOMEscan competition binding (immobilised reference ligand, qPCR)
Conditions: read-out: % Ctrl / 10 μM
From the text: KINOMEscan competition binding (immobilised reference ligand, qPCR) on TNIK

remaining binding at 10 µM: 0%
Structure (SMILES): CCN(CC)CCNC(=O)c1c(C)[nH]c(/C=C2\C(=O)Nc3ccc(F)cc32)c1C [Sunitinib]
